{"sequences": {"note": "By UniProt entry, the sequences of proteins in these tests, tags left out. Residues count along the entry.", "UniProt P06873, 106-384, species assumed": "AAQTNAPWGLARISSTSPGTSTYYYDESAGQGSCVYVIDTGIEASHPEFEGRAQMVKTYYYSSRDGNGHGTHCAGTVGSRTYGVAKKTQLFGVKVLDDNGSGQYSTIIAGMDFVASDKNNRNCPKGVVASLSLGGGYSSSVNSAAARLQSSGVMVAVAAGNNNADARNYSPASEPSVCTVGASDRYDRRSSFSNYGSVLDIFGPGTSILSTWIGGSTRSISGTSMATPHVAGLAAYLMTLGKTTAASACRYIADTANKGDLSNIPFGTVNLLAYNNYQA"}, "source": "patent US20120142584A1", "about": "“NOVEL TRANSPORTER CONSTRUCTS AND TRANSPORTER CARGO CONJUGATE MOLECULES” (priority 2008, published 2012)", "data": [{"target": "Proteinase K (Parengyodontium album, UniProt P06873)", "conditions": "not given", "values": [{"smiles": "N=C(N)NCCC[C@H](NC(=O)[C@H](CCCNC(=N)N)NC(=O)[C@H](CCCNC(=N)N)NC(=O)[C@H](CCCNC(=N)N)NC(=O)[C@H](CCCNC(=N)N)NC(=O)[C@H](CCCNC(=N)N)NC(=O)[C@H](CCCNC(=N)N)NC(=O)[C@H](CCCNC(=N)N)NC(=O)[C@@H](N)CCCNC(=N)N)C(=O)O", "note": "[SEQ ID No. 123, reference compound]", "Protease sensitivity": "+"}]}, {"target": "Proteinase K (Parengyodontium album, UniProt P06873)", "conditions": "Proteinase K; t=0, 10 and 40 minutes; mass spectrometry analysis", "values": [{"smiles": "N=C(N)NCCC[C@@H](N)C(=O)N[C@H](CCCNC(=N)N)C(=O)N[C@H](CCCNC(=N)N)C(=O)N[C@H](CCCNC(=N)N)C(=O)N[C@H](CCCNC(=N)N)C(=O)N[C@H](CCCNC(=N)N)C(=O)N[C@H](CCCNC(=N)N)C(=O)N[C@H](CCCNC(=N)N)C(=O)N[C@H](CCCNC(=N)N)C(=O)O", "note": "[SEQ ID No. 257, rrrrrrrrr]", "Protease sensitivity": "−"}, {"smiles": "N=C(N)NCCC[C@@H](N)C(=O)N[C@@H](CCCNC(=N)N)C(=O)N[C@H](CCCNC(=N)N)C(=O)N[C@@H](CCCNC(=N)N)C(=O)N[C@H](CCCNC(=N)N)C(=O)N[C@@H](CCCNC(=N)N)C(=O)N[C@H](CCCNC(=N)N)C(=O)N[C@@H](CCCNC(=N)N)C(=O)N[C@H](CCCNC(=N)N)C(=O)O", "note": "[SEQ ID No. 258, rRrRrRrRr]", "Protease sensitivity": "−"}, {"smiles": "N=C(N)NCCC[C@@H](N)C(=O)N[C@H](CCCNC(=N)N)C(=O)N[C@@H](CCCNC(=N)N)C(=O)N[C@@H](CCCNC(=N)N)C(=O)N[C@H](CCCNC(=N)N)C(=O)N[C@H](CCCNC(=N)N)C(=O)N[C@@H](CCCNC(=N)N)C(=O)N[C@@H](CCCNC(=N)N)C(=O)N[C@H](CCCNC(=N)N)C(=O)O", "note": "[SEQ ID No. 259, rrRRrrRRr]", "Protease sensitivity": "−"}, {"smiles": "N=C(N)NCCC[C@@H](N)C(=O)N[C@H](CCCNC(=N)N)C(=O)N[C@H](CCCNC(=N)N)C(=O)N[C@@H](CCCNC(=N)N)C(=O)N[C@@H](CCCNC(=N)N)C(=O)N[C@@H](CCCNC(=N)N)C(=O)N[C@H](CCCNC(=N)N)C(=O)N[C@H](CCCNC(=N)N)C(=O)N[C@H](CCCNC(=N)N)C(=O)O", "note": "[SEQ ID No. 260, rrrRRRrrr]", "Protease sensitivity": "+"}, {"smiles": "N=C(N)NCCC[C@@H](N)C(=O)N[C@H](CCCNC(=N)N)C(=O)N[C@H](CCCNC(=N)N)C(=O)N[C@@H](CCCNC(=N)N)C(=O)N[C@@H](CCCNC(=N)N)C(=O)N[C@@H](CCCNC(=N)N)C(=O)N[C@@H](CCCNC(=N)N)C(=O)N[C@H](CCCNC(=N)N)C(=O)N[C@H](CCCNC(=N)N)C(=O)O", "note": "[SEQ ID No. 261, rrrRRRRrr]", "Protease sensitivity": "+"}]}]}
